{"source": "patent US5980939A", "about": "“Cyclosporin-containing pharmaceutical composition” (Chong Kun Dang Corp., priority 1996, dated 1999)", "origin": "cited, not measured here", "test_system": "rat", "conditions": "per oral; cited from earlier work", "data": [{"substance": "butanol", "values": [{"measurement": "LD50", "result": 4360, "unit": "mg/kg"}]}]}
